T1: δ subunit of the DnaX clamp loader complex (E. coli, UniProt P28630 1-343)
T1 sequence: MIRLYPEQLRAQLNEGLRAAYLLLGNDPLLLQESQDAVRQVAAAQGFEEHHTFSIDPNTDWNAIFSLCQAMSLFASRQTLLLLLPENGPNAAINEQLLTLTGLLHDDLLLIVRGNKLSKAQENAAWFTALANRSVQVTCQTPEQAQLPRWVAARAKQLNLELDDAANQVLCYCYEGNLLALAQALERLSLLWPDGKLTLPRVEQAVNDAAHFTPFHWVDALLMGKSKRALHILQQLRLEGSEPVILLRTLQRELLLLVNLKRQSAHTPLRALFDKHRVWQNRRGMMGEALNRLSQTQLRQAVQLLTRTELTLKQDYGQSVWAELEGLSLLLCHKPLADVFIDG

B1: myc-tagged β^+ homodimer (natural protein)
chain: MKFTVEREHLLKPLQQVSGPLGGRPTLPILGNLLLQVADGTLSLTGTDLEMEMVARVALVQPHEPGATTVPARKFFDICRGLPEGAEIAVQLEGERMLVRSGRSRFSLSTLPAADFPNLDDWQSEVEFTLPQATMKRLIEATQFSMAHQDVRYYLNGMLFETEGEELRTVATDGHRLAVCSMPIGQSLPSHSVIVPRKGVIELMRMLDGGDNPLRVQIGSNNIRAHVGDFIFTSKLVDGRFPDYRRVLPKNPDKHLEAGCDLLKQAFARAAILSNEKFRGVRLYVSENQLKITANNPEQEEAEEILDVTYSGAEMEIGFNVSYVLDVLNALKCENVRMMLTDSVSSVQIEDAASQSAAYVVMPMRL
B2: his6-tagged β^+ homodimer (natural protein)
chain: B1 chain
B3: α catalytic subunit of Pol III (enzyme)
chain: MSEPRFVHLRVHSDYSMIDGLAKTAPLVKKAAALGMPALAITDFTNLCGLVKFYGAGHGAGIKPIVGADFNVQCDLLGDELTHLTVLAANNTGYQNLTLLISKAYQRGYGAAGPIIDRDWLIELNEGLILLSGGRMGDVGRSLLRGNSALVDECVAFYEEHFPDRYFLELIRTGRPDEESYLHAAVELAEARGLPVVATNDVRFIDSSDFDAHEIRVAIHDGFTLDDPKRPRNYSPQQYMRSEEEMCELFADIPEALANTVEIAKRCNVTVRLGEYFLPQFPTGDMSTEDYLVKRAKEGLEERLAFLFPDEEERLKRRPEYDERLETELQVINQMGFPGYFLIVMEFIQWSKDNGVPVGPGRGSGAGSLVAYALKITDLDPLEFDLLFERFLNPERVSMPDFDVDFCMEKRDQVIEHVADMYGRDAVSQIITFGTMAAKAVIRDVGRVLGHPYGFVDRISKLIPPDPGMTLAKAFEAEPQLPEIYEADEEVKALIDMARKLEGVTRNAGKHAGGVVIAPTKITDFAPLYCDEEGKHPVTQFDKSDVEYAGLVKFDFLGLRTLTIINWALEMINKRRAKNGEPPLDIAAIPLDDKKSFDMLQRSETTAVFQLESRGMKDLIKRLQPDCFEDMIALVALFRPGPLQSGMVDNFIDRKHGREEISYPDVQWQHESLKPVLEPTYGIILYQEQVMQIAQVLSGYTLGGADMLRRAMGKKKPEEMAKQRSVFAEGAEKNGINAELAMKIFDLVEKFAGYGFNKSHSAAYALVSYQTLWLKAHYPAEFMAAVMTADMDNTEKVVGLVDECWRMGLKILPPDINSGLYHFHVNDDGEIVYGIGAIKGVGEGPIEAIIEARNKGGYFRELFDLCARTDTKKLNRRVLEKLIMSGAFDRLGPHRAALMNSLGDALKAADQHAKAEAIGQADMFGVLAEEPEQIEQSYASCQPWPEQVVLDGERETLGLYLTGHPINQYLKEIERYVGGVRLKDMHPTERGKVITAAGLVVAARVMVTKRGNRIGICTLDDRSGRLEVMLFTDALDKYQQLLEKDRILIVSGQVSFDDFSGGLKMTAREVMDIDEAREKYARGLAISLTDRQIDDQLLNRLRQSLEPHRSGTIPVHLYYQRADARARLRFGATWRVSPSDRLLNDLRGLIGSEQVELEFD

What was measured:
[1] = target: T1, δ subunit of the DnaX clamp loader …; assay: ITC
[2] = target: B3; assay: SPR
[3] = target: B2; assay: SPR

Binder: B1
KD of the first δ (sequential binding sites model) [1]: 259 nM | KD of the second δ (sequential binding sites model) [1]: 4000 nM

Binder: B2
Kd [2]: 108 nM | koff [2]: 0.00726 s⁻¹ | kon [2]: 67500 M⁻¹ s⁻¹

Binder: B3
stoichiometry N [3]: 1
